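Cultured in 96-well plates, cells were exposed to test compound for 48 hours across five concentrations. The concentration for 50% growth inhibition is given as GI50. TGI marks complete inhibition of growth.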
Tests used:
Test in all cases: NCI tumour cell line growth inhibition, 48 h
[1] = test system: OVCAR-5 ovarian
[2] = test system: NCI/ADR-RES ovarian
[3] = test system: NCI-H226 lung
[4] = test system: SK-MEL-5 melanoma
[5] = test system: UACC-257 melanoma
[6] = test system: KM20L2 colon
[7] = test system: NCI-H522 lung
[8] = test system: SF-295 CNS
[9] = test system: HCT-116 colon
[10] = test system: MCF7 breast
[11] = test system: XF 498 CNS
[12] = test system: COLO 205 colon
[13] = test system: CCRF-CEM leukemia
[14] = test system: HL-60(TB) leukemia
[15] = test system: MALME-3M melanoma
[16] = test system: CAKI-1 renal
[17] = test system: HT29 colon
[18] = test system: SK-OV-3 ovarian
[19] = test system: DMS 273 small cell lung
[20] = test system: NCI-H322M lung
[21] = test system: SNB-78 CNS
[22] = test system: OVCAR-4 ovarian
[23] = test system: SN12K1 renal
[24] = test system: MOLT-4 leukemia
[25] = test system: NCI-H23 lung
[26] = test system: P388/ADR leukemia
[27] = test system: K-562 leukemia
[28] = test system: SF-539 CNS
[29] = test system: OVCAR-8 ovarian

Work on `CC(O)CCOP(=O)(N(CCCl)CCCl)N1CC1` (configuration not stated) yielded a TGI [1] greater than 100 µM, a GI50 [2] greater than 100 µM and a TGI [2] greater than 100 µM. For the same molecule, the GI50 [3] was greater than 100 µM, the TGI [3] was greater than 100 µM and the GI50 [4] was greater than 100 µM. For the same molecule, the TGI [4] was greater than 100 µM, the GI50 [5] was greater than 100 µM and the TGI [5] was greater than 100 µM. The GI50 [6] was greater than 100 µM, the TGI [6] was greater than 100 µM and the GI50 [7] was greater than 100 µM. The TGI [7] was greater than 100 µM, the GI50 [8] was greater than 100 µM and the TGI [8] was greater than 100 µM. The GI50 [9] was greater than 100 µM, the TGI [9] was greater than 100 µM and the GI50 [10] was greater than 100 µM. For the same molecule, the TGI [10] was greater than 100 µM, the GI50 [11] was 81.2 µM and the TGI [11] was greater than 100 µM. It also gave a GI50 [12] of 31.6 µM, a TGI [12] of 31.6 µM and a GI50 [13] of 0.863 µM. For the same molecule, the TGI [13] was greater than 100 µM, the GI50 [14] was greater than 100 µM and the TGI [14] was greater than 100 µM. The GI50 [15] was greater than 100 µM, the TGI [15] was greater than 100 µM and the GI50 [16] was greater than 100 µM. The TGI [16] was greater than 100 µM, the GI50 [17] was greater than 100 µM and the TGI [17] was greater than 100 µM. The GI50 [18] was greater than 100 µM, the TGI [18] was greater than 100 µM and the GI50 [19] was greater than 100 µM. The TGI [19] was greater than 100 µM, the GI50 [20] was greater than 100 µM and the TGI [20] was greater than 100 µM. It also gave a GI50 [21] greater than 100 µM, a TGI [21] greater than 100 µM and a GI50 [22] greater than 100 µM. For the same molecule, the TGI [22] was greater than 100 µM, the GI50 [23] was greater than 100 µM and the TGI [23] was greater than 100 µM. It also gave a GI50 [24] of 84.8 µM, a TGI [24] greater than 100 µM and a GI50 [25] greater than 100 µM. It also gave a TGI [25] greater than 100 µM, a GI50 [26] greater than 100 µM and a TGI [26] greater than 100 µM. The GI50 [27] was greater than 100 µM, the TGI [27] was greater than 100 µM and the GI50 [28] was greater than 100 µM. The TGI [28] was greater than 100 µM, the GI50 [29] was greater than 100 µM and the TGI [29] was greater than 100 µM.

— PubChem BioAssay (NCI)
